The subject of assay [1] is acetylated α-tubulin (AcTub) levels in QBI293 cells. Put plainly: QBI293 cell assay of MT stabilization: acetylated α-tubulin ELISA. It counts as cell-based. To be noted: for AcTub (1 uM - normalized): 1 uM compound.
In assay [2] the test system is total α-tubulin (α-Tub) levels in QBI293 cells. Put plainly: QBI293 cell assay: total α-tubulin ELISA. It counts as cell-based. Particulars: for fold induction at 1 µM: read-out: α-Tub 1 μM, fold-change compared to vehicle (DMSO)-treated cells.
Setting [3] is: 4 h, 10 uM compound, read-out: AcTub (10 uM).
Where [4] appears, read: QBI293 cells, 4 h incubation, 10 μM, read-out: α-Tub 10 μM, fold-change compared to vehicle (DMSO)-treated cells.

Molecules are shown by their SMILES. Counter-ions that a name gives are not always drawn. Like-named read-outs stand apart in the source and are kept apart here.

For the molecule `CC(C)[C@H](Nc1c(-c2c(F)cc(OCCCN(C)C)cc2F)c(Cl)nc2ncnn12)C(F)(F)F` [Compound 23, (S)-3-(4-(5-Chloro-7-((1,1,1-trifluoro-3-methylbutan-2-yl)amino)-[1,2,4]triazolo[1,5-a]pyrimidin-6-yl)-3,5-difluorophenoxy)-N,N-dimethylpropan-1-aminium Formate], in assay [1] (normalized), the “AcTub (1 uM - normalized)” value was 1.26. Moreover, the fold induction at 1 µM turned out to be 12 ± 0.46 in assay [1] (4 h incubation, 1 μM, read-out: AcTub 1 μM, fold-change compared to vehicle (DMSO)-treated cells) and 0.87 ± 0.05 in assay [2] (QBI293 cells, 4 h incubation, 1 μM). Moreover, the fold induction at 10 µM in assay [1] (4 h incubation, 10 μM, read-out: AcTub 10 μM, fold-change compared to vehicle (DMSO)-treated cells) was found to be 2.05 ± 0.1; in assay [2] (4 h, QBI293 cells, 10 uM compound, read-out: AlfaTub (10 uM)), 1.13.

With `C[C@H](Nc1c(-c2c(F)cc(OCCCN(C)C)cc2F)c(Cl)nc2ncnn12)C1CC1` [Compound 31, (S)-3-(4-(5-Chloro-7-((1-cyclopropylethyl)amino)-[1,2,4]triazolo[1,5-a]pyrimidin-6-yl)-3,5-difluorophenoxy)-N,N-dimethylpropan-1-aminium Formate], in assay [1] (10 uM compound, normalized), the “AcTub (10 uM - normalized)” value was 0.08. For the same molecule, the fold induction at 10 µM in assay [1] (setting [3]) is 0.56.

As to `C[C@@H](Nc1c(-c2c(F)cc(OCCCN(C)C)cc2F)c(Cl)nc2ncnn12)C(C)(C)C` [Compound 24, (R)-3-(4-(5-Chloro-7-((3,3-dimethylbutan-2-yl)amino)-[1,2,4]triazolo[1,5-a]pyrimidin-6-yl)-3,5-difluorophenoxy)-N,N-dimethylpropan-1-aminium Formate], in assay [1] (4 h incubation, 1 μM), the “AcTub 1 μM, fold-change compared to positive control compound 5 (100 nM) (in parentheses)” value stood at 1.02 fold-change. Also, the fold induction at 10 µM in assay [2] (setting [4]) was 0.97 ± 0.03.

As for `CC(C)[C@@H](Nc1c(-c2c(F)cc(OCCCN(C)C)cc2F)c(Cl)nc2ncnn12)C(F)(F)F` [Compound 22, (R)-3-(4-(5-Chloro-7-((1,1,1-trifluoro-3-methylbutan-2-yl)amino)-[1,2,4]triazolo[1,5-a]pyrimidin-6-yl)-3,5-difluorophenoxy)-N,N-dimethylpropan-1-aminium Formate], the “AcTub (1 uM - normalized)” value in assay [1] (normalized) was determined as 1.04. In addition, in assay [2] (setting [4]), the fold induction at 10 µM turned out to be 1.13 ± 0.01.

`C[C@@H](Nc1c(-c2c(F)cc(OCCCN(C)C)cc2F)c(Cl)nc2ncnn12)C1CC1` [Compound 32, (R)-3-(4-(5-Chloro-7-((1-cyclopropylethyl)amino)-[1,2,4]triazolo[1,5-a]pyrimidin-6-yl)-3,5-difluorophenoxy)-N,N-dimethylpropan-1-aminium Formate]: the fold induction at 10 µM in assay [1] (setting [3]) was 0.56. Also, the fold induction at 1 µM in assay [2] (QBI293, 4 h) was determined as 1.04 ± 0.01.
